The values that follow come from patent publication US20060211073A1, “Assay for B-Raf activity based on intrinsic MEK ATPase activity” (priority 2005, published 2006).

Sequences of proteins named here, by UniProt entry; tags and fusion partners are left off.
UniProt P15056, whole entry, species assumed: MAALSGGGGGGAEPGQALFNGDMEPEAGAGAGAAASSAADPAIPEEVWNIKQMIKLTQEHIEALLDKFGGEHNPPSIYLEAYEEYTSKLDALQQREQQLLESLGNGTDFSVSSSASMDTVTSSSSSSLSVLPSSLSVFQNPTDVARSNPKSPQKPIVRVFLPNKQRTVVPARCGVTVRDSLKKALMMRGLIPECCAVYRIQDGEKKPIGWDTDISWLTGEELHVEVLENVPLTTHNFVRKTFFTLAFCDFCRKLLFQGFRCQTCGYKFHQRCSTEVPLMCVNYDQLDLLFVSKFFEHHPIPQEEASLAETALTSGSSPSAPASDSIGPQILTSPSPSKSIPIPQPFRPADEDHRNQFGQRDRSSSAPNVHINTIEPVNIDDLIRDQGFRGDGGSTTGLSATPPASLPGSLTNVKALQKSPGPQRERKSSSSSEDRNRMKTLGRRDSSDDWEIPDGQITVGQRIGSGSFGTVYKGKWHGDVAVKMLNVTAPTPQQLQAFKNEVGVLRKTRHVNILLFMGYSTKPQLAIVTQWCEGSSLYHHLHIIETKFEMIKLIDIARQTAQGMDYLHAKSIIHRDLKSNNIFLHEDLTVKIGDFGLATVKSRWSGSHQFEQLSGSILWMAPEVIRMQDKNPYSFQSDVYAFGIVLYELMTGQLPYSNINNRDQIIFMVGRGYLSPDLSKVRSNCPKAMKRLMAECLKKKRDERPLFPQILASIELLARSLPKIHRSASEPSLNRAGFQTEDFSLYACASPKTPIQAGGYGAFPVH
UniProt P15056, whole entry V600E: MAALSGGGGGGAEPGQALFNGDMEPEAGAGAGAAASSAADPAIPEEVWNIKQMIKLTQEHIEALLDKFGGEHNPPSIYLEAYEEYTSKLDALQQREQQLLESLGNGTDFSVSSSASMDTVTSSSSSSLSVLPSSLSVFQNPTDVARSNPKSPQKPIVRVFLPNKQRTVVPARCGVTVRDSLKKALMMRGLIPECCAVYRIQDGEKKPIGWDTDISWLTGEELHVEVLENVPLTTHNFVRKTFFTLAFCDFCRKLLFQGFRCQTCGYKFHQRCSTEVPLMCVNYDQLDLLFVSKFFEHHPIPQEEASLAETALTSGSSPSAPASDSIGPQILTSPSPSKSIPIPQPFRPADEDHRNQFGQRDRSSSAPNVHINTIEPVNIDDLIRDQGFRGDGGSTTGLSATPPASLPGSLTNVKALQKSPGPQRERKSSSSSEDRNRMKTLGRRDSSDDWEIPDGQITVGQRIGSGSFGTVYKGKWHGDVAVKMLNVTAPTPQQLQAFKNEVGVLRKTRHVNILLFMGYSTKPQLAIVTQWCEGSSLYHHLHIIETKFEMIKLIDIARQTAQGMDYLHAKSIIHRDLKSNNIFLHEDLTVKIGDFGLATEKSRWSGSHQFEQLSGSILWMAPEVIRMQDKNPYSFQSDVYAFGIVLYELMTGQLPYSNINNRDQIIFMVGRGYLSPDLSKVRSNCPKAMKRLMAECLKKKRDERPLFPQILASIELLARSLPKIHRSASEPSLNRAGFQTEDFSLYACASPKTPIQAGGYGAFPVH

The target of assay [1] is B-Raf (Homo sapiens, UniProt P15056). To be noted: read-out: IC50, previously established value; King et al., supra; cited from earlier work.
Assay [2] addresses V600E B-Raf (Homo sapiens, UniProt P15056, V600E). Kind of assay: biochemical.

A word on the IC50: it is the midpoint of a concentration-inhibition curve. Consider `CN(C)CCOc1ccc(-c2nc(-c3ccncc3)c(-c3ccc4c(c3)CC/C4=N\O)[nH]2)cc1` [SB-590885], for which the half-maximal inhibitory concentration (IC50) in assay [1] was 0.6 nM; in assay [2], 0.96 nM.
